The numbers were not newly measured in patent publication EP2322149A1, “Methods and compositions for the treatment of ischemia” (Universidad del Pais Vasco, priority 2009, dated 2011), which cites them from elsewhere.

By UniProt entry, the sequences of proteins in these tests, tags left out.
UniProt Q93086, whole entry, species assumed: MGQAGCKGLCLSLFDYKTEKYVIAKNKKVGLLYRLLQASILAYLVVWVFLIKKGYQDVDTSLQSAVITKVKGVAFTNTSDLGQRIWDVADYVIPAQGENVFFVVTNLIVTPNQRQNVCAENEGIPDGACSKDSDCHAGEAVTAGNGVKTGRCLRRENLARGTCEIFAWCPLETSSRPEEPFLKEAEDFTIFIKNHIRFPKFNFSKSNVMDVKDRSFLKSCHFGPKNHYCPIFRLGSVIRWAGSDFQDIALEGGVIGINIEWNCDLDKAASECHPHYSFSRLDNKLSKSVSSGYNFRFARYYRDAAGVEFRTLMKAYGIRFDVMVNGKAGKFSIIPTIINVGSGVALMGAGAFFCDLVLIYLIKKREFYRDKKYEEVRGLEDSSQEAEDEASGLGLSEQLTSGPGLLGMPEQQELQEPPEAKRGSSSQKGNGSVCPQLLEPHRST
UniProt Q99572, whole entry, species assumed: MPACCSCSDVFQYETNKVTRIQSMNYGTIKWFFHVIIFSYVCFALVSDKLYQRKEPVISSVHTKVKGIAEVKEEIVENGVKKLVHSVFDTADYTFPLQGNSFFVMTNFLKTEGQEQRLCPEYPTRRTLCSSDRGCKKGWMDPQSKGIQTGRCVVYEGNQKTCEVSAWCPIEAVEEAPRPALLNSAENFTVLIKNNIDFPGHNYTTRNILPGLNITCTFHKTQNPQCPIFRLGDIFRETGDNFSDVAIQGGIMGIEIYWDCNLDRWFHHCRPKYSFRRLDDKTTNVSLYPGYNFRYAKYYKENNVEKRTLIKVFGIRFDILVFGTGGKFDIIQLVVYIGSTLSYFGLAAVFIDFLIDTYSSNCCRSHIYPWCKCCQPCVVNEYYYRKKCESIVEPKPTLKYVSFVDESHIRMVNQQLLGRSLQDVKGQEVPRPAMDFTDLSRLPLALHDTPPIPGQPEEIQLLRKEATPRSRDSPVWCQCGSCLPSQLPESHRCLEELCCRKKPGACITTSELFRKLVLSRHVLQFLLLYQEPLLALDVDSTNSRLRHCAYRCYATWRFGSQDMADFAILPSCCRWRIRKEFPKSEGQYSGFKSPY

Counter-ions that a name gives are not always drawn.

Common to all, as to details: cited from earlier work
In one data set the target is T1, P2X2 (Homo sapiens, UniProt Q9UBL9).
T1 sequence (Q9UBL9 1-471): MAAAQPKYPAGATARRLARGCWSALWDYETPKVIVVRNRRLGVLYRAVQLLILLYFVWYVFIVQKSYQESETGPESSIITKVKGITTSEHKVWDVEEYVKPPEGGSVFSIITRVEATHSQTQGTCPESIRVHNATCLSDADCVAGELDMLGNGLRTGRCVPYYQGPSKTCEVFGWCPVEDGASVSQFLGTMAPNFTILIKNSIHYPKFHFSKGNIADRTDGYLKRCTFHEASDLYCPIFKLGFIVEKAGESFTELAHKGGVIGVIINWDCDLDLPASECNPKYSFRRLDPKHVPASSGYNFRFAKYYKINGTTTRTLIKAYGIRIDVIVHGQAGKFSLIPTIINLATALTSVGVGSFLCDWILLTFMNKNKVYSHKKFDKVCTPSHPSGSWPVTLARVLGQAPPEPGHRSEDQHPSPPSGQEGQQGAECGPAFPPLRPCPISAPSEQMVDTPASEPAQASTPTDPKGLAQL

The target of the next data set is T2, P2X4 (Homo sapiens, UniProt Q99571).
T2 sequence (Q99571 1-388): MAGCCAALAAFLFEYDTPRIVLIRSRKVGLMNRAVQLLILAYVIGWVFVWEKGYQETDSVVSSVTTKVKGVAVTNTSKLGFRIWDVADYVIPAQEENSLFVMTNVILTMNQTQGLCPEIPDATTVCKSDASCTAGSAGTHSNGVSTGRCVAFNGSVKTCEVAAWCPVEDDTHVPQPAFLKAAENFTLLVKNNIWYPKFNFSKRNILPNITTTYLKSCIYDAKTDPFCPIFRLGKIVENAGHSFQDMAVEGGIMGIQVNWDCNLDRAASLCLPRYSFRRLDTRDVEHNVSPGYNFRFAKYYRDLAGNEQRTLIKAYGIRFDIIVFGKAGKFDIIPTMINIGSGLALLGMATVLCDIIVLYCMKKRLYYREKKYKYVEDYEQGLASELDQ

For the next data set, the target named is P2X5 (Homo sapiens, UniProt Q93086).
The target of another data set is P2X7 (Homo sapiens, UniProt Q99572).

Take `O=C(Nc1cccc(C(=O)Nc2ccc(S(=O)(=O)O)c3cc(S(=O)(=O)O)cc(S(=O)(=O)O)c23)c1)Nc1cccc(C(=O)Nc2ccc(S(=O)(=O)O)c3cc(S(=O)(=O)O)cc(S(=O)(=O)O)c23)c1` [NF023]: the IC50 (commonly the concentration that gives 50% inhibition) at P2X2 was 63 µM.
As to `Cc1nc(N=Nc2ccc(S(=O)(=O)O)cc2S(=O)(=O)O)c(COP(=O)(O)O)c(C=O)c1O` [PPADS, tetrasodium salt of pyridoxalphosphate-6-azophenyl-2',4'-disulfonic acid], the IC50 was 2 µM at P2X2, 27.5 µM at P2X4, 2.6 µM at P2X5 and 4.2 µM at P2X7.
